{"sequences": {"note": "The chains behind the UniProt entries cited, without tags or fusion partners. Where a name states a change or a piece, a line headed by the entry shows the natural chain unless it says otherwise. Residues count along the entry.", "UniProt Q00960, 27-1482": "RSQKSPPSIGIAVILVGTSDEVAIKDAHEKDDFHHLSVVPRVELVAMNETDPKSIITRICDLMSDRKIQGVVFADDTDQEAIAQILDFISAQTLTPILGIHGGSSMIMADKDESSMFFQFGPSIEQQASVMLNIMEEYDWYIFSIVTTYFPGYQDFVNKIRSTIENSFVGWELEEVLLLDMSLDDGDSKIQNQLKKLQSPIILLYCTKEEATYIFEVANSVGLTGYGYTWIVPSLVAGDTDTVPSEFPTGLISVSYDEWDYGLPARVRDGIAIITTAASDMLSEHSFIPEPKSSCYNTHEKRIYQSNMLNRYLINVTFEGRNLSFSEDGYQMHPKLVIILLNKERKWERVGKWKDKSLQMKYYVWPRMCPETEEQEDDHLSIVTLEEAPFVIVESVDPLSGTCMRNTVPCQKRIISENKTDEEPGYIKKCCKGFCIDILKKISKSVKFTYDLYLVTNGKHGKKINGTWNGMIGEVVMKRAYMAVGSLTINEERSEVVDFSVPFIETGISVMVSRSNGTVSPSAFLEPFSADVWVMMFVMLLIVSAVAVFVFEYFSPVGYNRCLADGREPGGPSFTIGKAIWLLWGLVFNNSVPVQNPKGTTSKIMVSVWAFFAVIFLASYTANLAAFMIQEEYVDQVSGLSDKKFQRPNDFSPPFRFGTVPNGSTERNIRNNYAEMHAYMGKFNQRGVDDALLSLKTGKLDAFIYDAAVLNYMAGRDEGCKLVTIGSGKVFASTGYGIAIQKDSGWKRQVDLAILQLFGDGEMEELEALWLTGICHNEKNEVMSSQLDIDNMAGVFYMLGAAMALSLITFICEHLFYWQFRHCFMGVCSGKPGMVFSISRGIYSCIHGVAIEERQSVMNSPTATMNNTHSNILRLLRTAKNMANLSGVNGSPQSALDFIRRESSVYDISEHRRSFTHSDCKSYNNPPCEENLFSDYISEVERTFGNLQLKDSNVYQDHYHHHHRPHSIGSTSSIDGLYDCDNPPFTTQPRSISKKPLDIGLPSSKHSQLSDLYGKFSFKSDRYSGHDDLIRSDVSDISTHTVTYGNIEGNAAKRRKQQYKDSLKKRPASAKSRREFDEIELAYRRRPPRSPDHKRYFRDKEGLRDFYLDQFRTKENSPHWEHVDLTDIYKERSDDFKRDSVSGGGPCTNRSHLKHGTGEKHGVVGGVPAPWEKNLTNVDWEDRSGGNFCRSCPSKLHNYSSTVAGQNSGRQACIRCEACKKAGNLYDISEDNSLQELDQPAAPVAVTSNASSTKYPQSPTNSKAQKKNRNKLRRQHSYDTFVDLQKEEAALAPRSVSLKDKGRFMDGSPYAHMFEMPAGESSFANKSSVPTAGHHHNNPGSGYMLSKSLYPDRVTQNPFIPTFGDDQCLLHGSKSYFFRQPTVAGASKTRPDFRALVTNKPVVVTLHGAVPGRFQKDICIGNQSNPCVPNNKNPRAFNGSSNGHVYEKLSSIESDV", "UniProt Q62645, 28-1323": "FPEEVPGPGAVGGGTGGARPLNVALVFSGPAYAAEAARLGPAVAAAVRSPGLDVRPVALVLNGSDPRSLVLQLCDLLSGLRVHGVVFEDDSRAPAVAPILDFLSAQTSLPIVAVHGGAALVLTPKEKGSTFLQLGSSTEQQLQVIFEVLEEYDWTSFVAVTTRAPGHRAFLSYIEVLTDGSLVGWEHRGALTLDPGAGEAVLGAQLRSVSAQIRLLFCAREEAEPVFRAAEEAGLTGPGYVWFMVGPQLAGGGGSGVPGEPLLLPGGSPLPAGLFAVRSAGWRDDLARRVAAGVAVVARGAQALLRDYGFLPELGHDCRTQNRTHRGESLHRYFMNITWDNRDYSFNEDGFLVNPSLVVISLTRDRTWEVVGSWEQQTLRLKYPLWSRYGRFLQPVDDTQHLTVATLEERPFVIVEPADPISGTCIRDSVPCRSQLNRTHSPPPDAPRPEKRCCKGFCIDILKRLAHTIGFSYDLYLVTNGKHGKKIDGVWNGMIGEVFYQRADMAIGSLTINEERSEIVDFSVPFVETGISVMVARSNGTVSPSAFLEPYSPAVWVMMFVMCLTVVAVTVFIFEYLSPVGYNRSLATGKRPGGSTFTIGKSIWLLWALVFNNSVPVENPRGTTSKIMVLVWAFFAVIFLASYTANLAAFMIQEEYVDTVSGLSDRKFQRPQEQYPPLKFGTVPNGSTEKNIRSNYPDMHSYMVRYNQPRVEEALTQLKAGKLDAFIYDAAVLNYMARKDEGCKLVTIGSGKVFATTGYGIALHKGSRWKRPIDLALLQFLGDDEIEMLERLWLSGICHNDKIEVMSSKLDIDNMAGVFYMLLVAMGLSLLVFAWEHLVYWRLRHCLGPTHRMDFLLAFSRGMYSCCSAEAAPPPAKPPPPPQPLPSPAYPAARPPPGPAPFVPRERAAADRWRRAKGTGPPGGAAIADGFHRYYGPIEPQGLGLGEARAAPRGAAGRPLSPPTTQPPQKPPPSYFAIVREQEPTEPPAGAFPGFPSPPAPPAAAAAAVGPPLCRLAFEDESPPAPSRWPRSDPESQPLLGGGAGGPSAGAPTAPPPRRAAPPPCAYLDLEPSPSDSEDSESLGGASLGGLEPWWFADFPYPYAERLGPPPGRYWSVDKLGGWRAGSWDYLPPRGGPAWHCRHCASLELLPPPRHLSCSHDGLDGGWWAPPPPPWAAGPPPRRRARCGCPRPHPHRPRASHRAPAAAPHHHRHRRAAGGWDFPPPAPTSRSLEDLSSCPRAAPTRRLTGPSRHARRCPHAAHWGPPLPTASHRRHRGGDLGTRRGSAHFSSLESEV"}, "source": "paper PMC6858497", "about": "(The Journal of physiology, 2019)", "assay_in_all_cases": "Two-electrode voltage-clamp recordings, Xenopus oocytes", "assay_type_in_all_cases": "cell-based", "settings_in_all_cases": "for IC50: IC50, channel block; for IC50 ratio (Mg2+/control): 1 mM Mg2+ versus control", "key": {"[1]": {"biological_target": "GluN1–1a/2B (Rattus norvegicus, UniProt P35439+Q00960)"}, "[2]": {"biological_target": "GluN1–1a/2BC1/2DC2 (Rattus norvegicus, UniProt P35439+Q00959+Q00960+Q62645, A876H/F846L/G856D/H848F/K857R/M851T/M860L/Q845K/R869K/V861L/V866F)"}, "[3]": {"biological_target": "GluN1–1a/2D (Rattus norvegicus, UniProt P35439+Q62645)"}, "[4]": {"settings": "−20 mV, control (absence of Mg2+)"}, "[5]": {"settings": "−40 mV, control (absence of Mg2+)"}, "[6]": {"settings": "−60 mV, control (absence of Mg2+)"}}, "data": [{"smiles": "CC12CC3CC(C)(C1)CC(N)(C3)C2", "note": "[memantine]", "values": [{"measurement": "IC50", "setting": "[1]; −20 mV, + 1 mM Mg2+", "result": "9.5 ± 0.6", "unit": "µM"}, {"measurement": "IC50", "setting": "[1]; [4]", "result": "2.7 ± 0.2", "unit": "µM"}, {"measurement": "IC50", "setting": "[1]; −40 mV, + 1 mM Mg2+", "result": "12 ± 2", "unit": "µM"}, {"measurement": "IC50", "setting": "[1]; [5]", "result": "1.3 ± 0.1", "unit": "µM"}, {"measurement": "IC50", "setting": "[1]; −60 mV, + 1 mM Mg2+", "result": "8.9 ± 1.5", "unit": "µM"}, {"measurement": "IC50", "setting": "[1]; [6]", "result": 0.6, "unit": "µM"}, {"measurement": "IC50 ratio (Mg2+/control)", "setting": "[1]; −20 mV", "result": 3.5}, {"measurement": "IC50 ratio (Mg2+/control)", "setting": "[1]; −40 mV", "result": 9.2}, {"measurement": "IC50 ratio (Mg2+/control)", "setting": "[1]; −60 mV", "result": 14.8}, {"measurement": "IC50", "setting": "[2]; −20 mV, + 1 mM Mg2+", "result": "3200 ± 100", "unit": "nM"}, {"measurement": "IC50", "setting": "[2]; [4]", "result": "2500 ± 400", "unit": "nM"}, {"measurement": "IC50", "setting": "[2]; −40 mV, + 1 mM Mg2+", "result": "2600 ± 200", "unit": "nM"}, {"measurement": "IC50", "setting": "[2]; [5]", "result": "1200 ± 100", "unit": "nM"}, {"measurement": "IC50", "setting": "[2]; −60 mV, + 1 mM Mg2+", "result": "2600 ± 300", "unit": "nM"}, {"measurement": "IC50", "setting": "[2]; [6]", "result": 600, "unit": "nM"}, {"measurement": "IC50 ratio (Mg2+/control)", "setting": "[2]; −20 mV", "result": 1.3}, {"measurement": "IC50 ratio (Mg2+/control)", "setting": "[2]; −40 mV", "result": 2.2}, {"measurement": "IC50 ratio (Mg2+/control)", "setting": "[2]; −60 mV", "result": 4.3}, {"measurement": "IC50", "setting": "[3]; −20 mV, + 1 mM Mg2+", "result": "1400 ± 100", "unit": "nM"}, {"measurement": "IC50", "setting": "[3]; [4]", "result": "1100 ± 100", "unit": "nM"}, {"measurement": "IC50", "setting": "[3]; −40 mV, + 1 mM Mg2+", "result": 1000, "unit": "nM"}, {"measurement": "IC50", "setting": "[3]; [5]", "result": 700, "unit": "nM"}, {"measurement": "IC50", "setting": "[3]; −60 mV, + 1 mM Mg2+", "result": 800, "unit": "nM"}, {"measurement": "IC50", "setting": "[3]; [6]", "result": 400, "unit": "nM"}, {"measurement": "IC50 ratio (Mg2+/control)", "setting": "[3]; −20 mV", "result": 1.3}, {"measurement": "IC50 ratio (Mg2+/control)", "setting": "[3]; −40 mV", "result": 1.4}, {"measurement": "IC50 ratio (Mg2+/control)", "setting": "[3]; −60 mV", "result": 2.0}]}]}
